Activity calls are given as the source filed them. The rule behind the calls is not given here.

Common to all, as to format: functional, organism-based
Assay [1] deals with Rattus norvegicus. Briefly: Anti-NASH activity in Sprague-Dawley rat model of DEN-induced liver fibrosis assessed as reduction in Col1A1 mRNA expression at 3 to 10 mg/kg, po qd treated for 4 weeks by qPCR analysis. The note with it: dose 3-10 mg/kg. For orientation: In qPCR the cycle at which signal appears reflects the starting amount.
The subject of assay [2] is Rattus norvegicus. Kind of assay: Anti-NASH activity in Sprague-Dawley rat model of DEN-induced liver fibrosis assessed as reduction in alpha-SMA mRNA expression at 3 to 10 mg/kg, po qd treated for 4 weeks by qPCR analysis. The note with it: dose 3-10 mg/kg.
Assay [3] has as its system Rattus norvegicus. Kind of assay: Anti-NASH activity in Sprague-Dawley rat model of DEN-induced liver fibrosis assessed as reversal of DEN-induced ALT level administered orally once daily treated for 4 weeks by ELISA. The note with it: dose 3-10 mg/kg, route po. For orientation: In an ELISA, binding on a coated surface is turned into a signal by an enzyme label.
Assay [4] has as its system Rattus norvegicus. Kind of assay: Anti-NASH activity in Sprague-Dawley rat model of DEN-induced liver fibrosis assessed as reversal of DEN-induced AST level administered orally once daily treated for 4 weeks by ELISA. The following applies: dose 3-10 mg/kg, route po.
Assay [5] relates to Rattus norvegicus. Briefly: Anti-NASH activity in Sprague-Dawley rat model of DEN-induced liver fibrosis assessed as reversal of DEN-induced TBIL level administered orally once daily treated for 4 weeks by ELISA. The following applies: dose 3-10 mg/kg, route po.
In assay [6] the test system is Rattus norvegicus. Briefly: Anti-NASH activity in Sprague-Dawley rat model of DEN-induced liver fibrosis assessed as reversal of DEN-induced GGT level administered orally once daily treated for 4 weeks by ELISA. The note with it: dose 3-10 mg/kg, route po.
The test system of assay [7] is Rattus norvegicus. Briefly: Anti-NASH activity in Sprague-Dawley rat model of DEN-induced liver fibrosis assessed as reduction in fibrotic collagen area at 3 to 10 mg/kg, po qd treated for 4 weeks by sirus red staining based analysis. The note with it: dose 3-10 mg/kg.
Assay [8] has as its system Rattus norvegicus. Briefly: Anti-NASH activity in Sprague-Dawley rat model of DEN-induced liver fibrosis assessed as reduction in DEN-induced pathological change at 3 to 10 mg/kg, po qd treated for 4 weeks by sirus red staining based analysis. The following applies: dose 3-10 mg/kg.
Assay [9] relates to Rattus norvegicus. Briefly: Anti-NASH activity in Sprague-Dawley rat model of DEN-induced liver fibrosis assessed as reduction in alpha-SMA expression at 3 to 10 mg/kg, po qd treated for 4 weeks by IHC analysis. The following applies: dose 3-10 mg/kg.

For `COc1ccccc1[C@H](Cn1c(=O)n([C@H]2C[C@@](C)(C(=O)O)C2)c(=O)c2c(C)c(-c3ncco3)sc21)OC1CCOCC1`, the Activity entry is “Active; Activity Better Than Nd-630” in [1]; “Active; Activity Better Than Nd-630” in [2]; “Dose-dependent-effect” in assay [3]; “Dose-dependent-effect” in [4]; “Dose-dependent-effect” in assay [5]; “Dose-dependent-effect” in assay [6]. Further, the outcome in assay [7], in assay [8] and in [9] was Active.

The values above are taken from ChEMBL document CHEMBL6134873, “Identification of Novel Cyclobutane-Based Derivatives as Potent Acetyl-CoA Carboxylase Allosteric Inhibitors for Nonalcoholic Steatohepatitis Drug Discovery” (J Med Chem, 2025).
